Data taken from US20120101169A1, “METHODS OF PROVIDING ANTICOAGULATION EFFECTS IN SUBJECTS” (Penwest Pharmaceuticals Co., priority 2010, published 2012).

Columns and labels:
coagulation [1] = assay: 4 week rat study
coagulation [2] = assay: 4 week dog study
fibrinogen (factor I) = assay: Extended coagulation biomarker panel: factor I; conditions: in vivo
[3] = test system: coagulation (PT, INR, aPTT); assay: Basic coagulation panel (PT, INR, aPTT) and coagulation safety (Example 5)

## CC1=C(C)C(=O)C(CC[C@](C)(O)CCC[C@H](C)CCC[C@H](C)CCCC(C)C)=C(C)C1=O [ATQ, alpha-tocopherolquinone]
Coagulation [1]
  Effect on coagulation: appeared to have an effect on coagulation
Coagulation [2]
  Effect on coagulation: appeared to have an effect on coagulation
Fibrinogen (factor I)
  Effect on fibrinogen (factor I) concentrations: did not appear to affect
[3]; 0.67 g TID group
  Subjects with INR more than two times the normal level (discontinued): 3 of 8
[3]; 0.75 g BID
  Intensity (grade) of maximum increase in INR: Grade 2 (“Grade 2” refers to an INR value of 1.65 to 2.2 in a subject)
[3]; multiple daily administration of 2-g/day (0.67 g TID)
  Intensity (grade) of increase in INR: Grade 3 (“Grade 3” refers to an INR value greater than 2.2 in a subject)
[3]; single daily doses of 3-g ATQ
  Intensity (grade) of increase in INR: Grade 2 (“Grade 2” refers to an INR value of 1.65 to 2.2 in a subject)
